Literature values as cited in patent US20160051533A1, “DIAGNOSIS AND PHARMACOLOGICAL TREATMENT OF SEASONAL AFFECTIVE DISORDER AND SYMPTOMS OF SEASONALITY” (Ladd Research LLC, priority 2014, published 2016).

Chains of the proteins cited; added tags and fusions are not shown.
UniProt O43613, whole entry: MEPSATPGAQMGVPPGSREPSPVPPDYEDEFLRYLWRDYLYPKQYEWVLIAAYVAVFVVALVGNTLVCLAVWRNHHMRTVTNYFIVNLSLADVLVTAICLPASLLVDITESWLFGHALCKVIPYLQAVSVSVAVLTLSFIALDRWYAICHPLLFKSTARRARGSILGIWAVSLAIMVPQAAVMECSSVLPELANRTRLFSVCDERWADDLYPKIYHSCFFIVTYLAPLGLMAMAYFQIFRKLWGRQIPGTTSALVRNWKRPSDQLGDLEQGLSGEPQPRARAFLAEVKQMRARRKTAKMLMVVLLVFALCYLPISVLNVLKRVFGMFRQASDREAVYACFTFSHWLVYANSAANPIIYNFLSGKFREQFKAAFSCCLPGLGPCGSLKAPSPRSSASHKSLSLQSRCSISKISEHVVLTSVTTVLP

Key:
Human OxR1 [1] = target: T1, Human OxR1 (Homo sapiens, UniProt O43613); settings: read-out: Human OxR1 Ki; cited from earlier work
Human OxR1 [2] = target: T1, Human OxR1; settings: read-out: Human OxR1 RLIPR; cited from earlier work
Human OxR1 [3] = target: T1, Human OxR1; settings: [3H] Almorexant, one saturable site; cited from earlier work

For `CNC(=O)[C@@H](c1ccccc1)N1CCc2cc(OC)c(OC)cc2[C@@H]1CCc1ccc(C(F)(F)F)cc1.Cl` [Almorexant HCl], the Ki (Human OxR1 [1]) is given as 4.7 nM, the IC50 (Human OxR1 [2]) is given as 24.1 nM and the Kd (Human OxR1 [3]) is given as 1.3 nM.
